HCMV NEC inh – disrupts HCMV UL50-UL53 complex binding; HTRF UL50-UL53 interaction, normalized percent inhibition; inhibition, % (concentration not given with the values); 0.15% of 190,000 active; AID 1918969; in the data active means inhibition above about 27%, passing the limit was not always enough
Sa growth 42C – S. aureus growth inhibition; relative growth, % (no concentration beside the values); AID 720641; 0.53% of 170,000 active; S. aureus RN4220 growth, OD600, 20 h, 42 °C; stronger effect = lower value;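 active means relative growth at most 50% at the other temperature and 20+ points below 30 °C, or under 10% at both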
GIV Gai3 FP – blocks GIV peptide binding to rat Galpha-i3. P08753. Galpha-i3/FITC-GIV peptide fluorescence polarization, 90 min; hits give low values; scaled: aluminum fluoride 0%, vehicle 100%. percent of control (FP), % (concentration not given with the values). actives 0.42% (n = 210,000). AID 1224905;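 active = replicate mean at 85% of control or lower, very high polarization wells dropped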;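 also: wells of about 15 µL received 100 nL stock; the first replicate is given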
GIV-Gai FP conf – confirmation of inhibitors of GIV binding to rat Galpha-i3. shares compounds with GIV Gai3 FP. FITC-GIV peptide binding to Galphai3, fluorescence polarization; stronger effect = lower value. fluorescence polarization, mP at 100 µM. 38% of 580 active;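 active means inhibition score of 15 or more, meaning 100 minus mean polarization as percent of control over three replicates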
GIV-Gai AS conf – GIV-Galpha-i3 inhibition, AlphaScreen confirmation; shares compounds with GIV Gai3 FP; AlphaScreen Galphai3-GIV binding, purified proteins, 90 min; stronger effect = lower value; AlphaScreen counts at 100 µM; 39% of 580 active;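 active means inhibition score at or above a set limit, where the score is 100 minus the three-replicate mean percent of control signal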
Active calls of the source: *; nt = no result given. Compounds with a hit are over-represented: about 0.7% of the library has one in this group of screens.

[1] O=C(CCn1nnc2cc(-c3noc(C4(c5ccccc5)CC4)n3)ccc21)N1CCOCC1
[2] CCOc1ccc(NC(=O)CN2CCCN(Cc3cccc(C)c3)S2(=O)=O)cc1
[3] N#Cc1c(/N=C/c2ccc(Cl)cc2)oc(-c2ccccc2)c1-c1ccccc1
[4] N#Cc1c(/N=C/c2ccc3c(c2)OCO3)oc(-c2ccccc2)c1-c1ccccc1
[5] CN(/N=C/c1sc2ccccc2c1O)c1ccccc1
[6] CCOC(=O)c1cccc(NC(=O)c2sc3nc[nH]c(=O)c3c2C)c1
[7] CCOC(=O)c1sc2nc[nH]c(=O)c2c1C
[8] CCCOc1ccc2c(c1)C(=O)c1cc(OCC(=O)O)ccc1-2

| screen / no. | 1 | 2 | 3 | 4 | 5 | 6 | 7 | 8 |
| --- | --- | --- | --- | --- | --- | --- | --- | --- |
| HCMV NEC inh | nt | -21 | nt | 7 | -1 | nt | nt | -181 |
| Sa growth 42C | nt | nt | nt | 83 | 102 | 108 | 102 | 103 |
| GIV Gai3 FP | 100 | 100 | 109 | 84* | nt | 92 | 103 | 80* |
| GIV-Gai FP conf | nt | nt | nt | 74 | nt | 78 | nt | 73 |
| GIV-Gai AS conf | nt | nt | nt | 31432 | nt | 34553 | nt | 54581 |

[9] CCOc1ccc2c(c1)C(=O)c1cc(OCC(=O)OC)ccc1-2
[10] N#Cc1ccsc1/N=C/c1ccccc1
[11] Cc1ccc(/C=N/c2sccc2C#N)cc1
[12] CN(C)C(=O)N1CCN(Cc2ccc3c(c2)OCO3)CC1
[13] COc1cc(/C=C2\C(=O)N(c3ccc(S(N)(=O)=O)cc3)N=C2C)cc(Br)c1OCc1ccccc1
[14] COc1cc(/C=C2\C(=O)N(c3ccc(Cl)c(C(=O)O)c3)N=C2C)ccc1OCc1ccccc1
[15] O=C(O)CCC(=O)Nc1nc2n(n1)C(c1ccc(Cl)cc1)C=C(c1ccccc1)N2 (stereo not drawn)
[16] O=C(O)CCCC(=O)Nc1nc2n(n1)C(c1ccc(Cl)cc1)C=C(c1ccc(Cl)cc1)N2 (stereo not drawn)

| screen / no. | 9 | 10 | 11 | 12 | 13 | 14 | 15 | 16 |
| --- | --- | --- | --- | --- | --- | --- | --- | --- |
| HCMV NEC inh | nt | -24 | -10 | -12 | 46* | 26 | -75 | -63 |
| Sa growth 42C | nt | nt | nt | 108 | nt | nt | nt | nt |
| GIV Gai3 FP | 128 | 106 | 48* | 106 | 66* | 109 | 63* | 104 |
| GIV-Gai FP conf | nt | nt | 40* | nt | 59 | nt | 44* | nt |
| GIV-Gai AS conf | nt | nt | 10146* | nt | 27596* | nt | 2477* | nt |

[17] N#CC1=C(N)n2c(s/c(=C\c3ccc(Cl)cc3)c2=O)=C(C#N)C1c1ccc(Cl)cc1 (stereo not drawn)
[18] COc1ccc(C2=CC(=O)N(c3ccccc3)C(c3ccccc3)O2)cc1 (stereo not drawn)
[19] COc1ccc(C2N(c3ccccc3)OC(=O)N2c2ccccc2)cc1 (stereo not drawn)
[20] COc1ccccc1NC(=O)N1CCN(C)c2ccccc21
[21] O=C1NC(=S)NC(=O)C1=Cc1cccc(O)c1Cl
[22] CC(C)(C)c1ccc(OCCOc2ccccc2C=C2C(=O)NC(=S)NC2=O)cc1
[23] COc1ccc(NC(C)=O)c(-c2nc3cc4ccccc4cc3n(Cc3ccccc3)c2=O)c1
[24] CSc1ncc(C(=O)OCC(=O)c2ccc(NS(C)(=O)=O)cc2)n1-c1ccccc1

| screen / no. | 17 | 18 | 19 | 20 | 21 | 22 | 23 | 24 |
| --- | --- | --- | --- | --- | --- | --- | --- | --- |
| HCMV NEC inh | nt | nt | nt | nt | -11 | -20 | 1 | -34 |
| Sa growth 42C | nt | 92 | 89 | nt | 119 | nt | nt | 103 |
| GIV Gai3 FP | 109 | 90 | 103 | 108 | 77* | 95 | 102 | nt |
| GIV-Gai FP conf | nt | 65 | nt | nt | 69 | nt | nt | nt |
| GIV-Gai AS conf | nt | 40592 | nt | nt | 4117* | nt | nt | nt |

[25] N#CC1=C(N)N(c2ccc(Br)cc2)C2=C(C(=O)CCC2)C1c1ccc([N+](=O)[O-])cc1 (stereo not drawn)
[26] O=C(CCc1nc2sc3c(c2c(=O)[nH]1)CCCC3)N1CCN(c2cccc(Cl)c2)CC1
[27] CCCN1CCCc2cc(CN)ccc21
[28] CNC(=O)NC(=O)CN1CCCc2cc(C)ccc21
[29] CC(C)N1CCCc2cc(CN)ccc21
[30] CCN1CCCc2cc(O)ccc21
[31] CSCC(C(=O)O)N1C(=O)c2ccc(C(=O)O)cc2C1=O (stereo not drawn)
[32] CC12C=CC(C)(O1)C1C(=O)N(c3ccccc3C#N)C(=O)C12 (stereo not drawn)

| screen / no. | 25 | 26 | 27 | 28 | 29 | 30 | 31 | 32 |
| --- | --- | --- | --- | --- | --- | --- | --- | --- |
| HCMV NEC inh | nt | -23 | -13 | -29 | 26 | -5 | -16 | -9 |
| Sa growth 42C | nt | nt | 84 | 84 | 98 | 74 | 94 | nt |
| GIV Gai3 FP | 112 | 100 | 65* | nt | nt | -9.7* | nt | 97 |
| GIV-Gai FP conf | nt | nt | 51* | nt | nt | 8.3* | nt | nt |
| GIV-Gai AS conf | nt | nt | 9116* | nt | nt | 5580* | nt | nt |

[33] NNC(=O)CNC(=O)c1ccco1
[34] CC1(C)CC(=O)c2c(oc3c(Br)cc(NS(=O)(=O)c4ccc5ccccc5c4)cc23)C1
[35] CC(C)c1cc(C2CCCN2Cc2ccc(O)cc2)no1 (stereo not drawn)
[36] CCN(CC)c1ccc2ccc(=O)oc2c1
[37] CCN(CC)c1ccc2cc(S(=O)(=O)c3ccc(F)c(Cl)c3)c(=O)oc2c1
[38] O=C(Cn1nnc(-c2cccc(F)c2)n1)N1CCCC1c1ccc2c(c1)OCCO2 (stereo not drawn)
[39] Oc1ccc2ccccc2c1C=NCc1cccnc1
[40] Oc1ccc2ccccc2c1C=NCc1cn2ccsc2n1

| screen / no. | 33 | 34 | 35 | 36 | 37 | 38 | 39 | 40 |
| --- | --- | --- | --- | --- | --- | --- | --- | --- |
| HCMV NEC inh | 1 | nt | nt | -93 | -1 | 2 | -8 | 20 |
| Sa growth 42C | 103 | nt | nt | 105 | 100 | 101 | 72 | 112 |
| GIV Gai3 FP | 103 | 114 | 109 | 137 | 56* | nt | 5.4* | nt |
| GIV-Gai FP conf | nt | nt | nt | nt | 71 | nt | 24* | nt |
| GIV-Gai AS conf | nt | nt | nt | nt | 47488 | nt | 5898* | nt |

Filtered by structure, the compounds so far containing bromine (3)
[13] COc1cc(/C=C2\C(=O)N(c3ccc(S(N)(=O)=O)cc3)N=C2C)cc(Br)c1OCc1ccccc1
[25] N#CC1=C(N)N(c2ccc(Br)cc2)C2=C(C(=O)CCC2)C1c1ccc([N+](=O)[O-])cc1 (stereo not drawn)
[34] CC1(C)CC(=O)c2c(oc3c(Br)cc(NS(=O)(=O)c4ccc5ccccc5c4)cc23)C1

| screen / no. | 13 | 25 | 34 |
| --- | --- | --- | --- |
| HCMV NEC inh | 46* | nt | nt |
| Sa growth 42C | nt | nt | nt |
| GIV Gai3 FP | 66* | 112 | 114 |
| GIV-Gai FP conf | 59 | nt | nt |
| GIV-Gai AS conf | 27596* | nt | nt |

(more compounds)
[41] O=C(NCC1CCCO1)c1n[nH]c2c1CCCC2 (stereo not drawn)
[42] O=C(c1ccccc1Br)N1CCC(c2nc(-c3ccc(Cl)cc3)no2)CC1
[43] CC1(C)C=C(O)C(C2(O)C(=O)c3ccccc3C2=O)C(=O)C1 (stereo not drawn)
[44] CC1(C)CC(=O)C(C2(O)C(=O)c3ccccc3C2=O)C(=O)C1
[45] CC12C=CC(CO)(O1)C1C(=O)N(c3ccc(Br)cc3)C(=O)C12 (stereo not drawn)
[46] COc1ccc(C2=N/C(=C/c3cc4ccccc4n3C(C)=O)C(=O)O2)cc1Br
[47] CC(=O)n1c(/C=C2/N=C(c3cccs3)OC2=O)cc2ccccc21
[48] CC(=O)NC1=CC(=O)c2nonc2C1=O

| screen / no. | 41 | 42 | 43 | 44 | 45 | 46 | 47 | 48 |
| --- | --- | --- | --- | --- | --- | --- | --- | --- |
| HCMV NEC inh | nt | -4 | 63 | 82* | 9 | nt | -31 | 86* |
| Sa growth 42C | nt | nt | 125 | 85 | 67 | nt | 93 | -0.7* |
| GIV Gai3 FP | 111 | 101 | nt | 66* | 100 | 113 | 95 | 4.4* |
| GIV-Gai FP conf | nt | nt | nt | 58* | nt | nt | 77 | 26* |
| GIV-Gai AS conf | nt | nt | nt | 44260 | nt | nt | 29162 | 7791* |

[49] COc1nonc1NC(C)=O
[50] CCc1cccc(C)c1NC(=O)CSc1n[nH]c(-c2ccc(OC)cc2)n1
[51] O=C(O)Cn1c2c(c3ccccc31)CSc1ccc(Cl)cc1-2
[52] O=C(O)Cn1c2ccc(Cl)cc2c2nc3ccccc3nc21
[53] COc1cc(-c2nc3ccccn3c2N)ccc1O
[54] COc1cc(/C=N/c2c(-c3ccc(O)c(OC)c3)nc3ccccn23)ccc1O
[55] CC(=O)O/N=C1\Sc2ccccc2C1=O
[56] COc1ccc(N(/N=C2\Sc3ccccc3C2=O)C(C)=O)cc1

| screen / no. | 49 | 50 | 51 | 52 | 53 | 54 | 55 | 56 |
| --- | --- | --- | --- | --- | --- | --- | --- | --- |
| HCMV NEC inh | 3 | nt | nt | -91 | 94* | -51 | 19 | -3 |
| Sa growth 42C | 91 | nt | 89 | nt | nt | 90 | 74 | 91 |
| GIV Gai3 FP | nt | 98 | 86 | nt | 24* | nt | 68* | 110 |
| GIV-Gai FP conf | nt | nt | 72 | nt | 51 | nt | 66 | nt |
| GIV-Gai AS conf | nt | nt | 18488* | nt | 18629* | nt | 29965* | nt |

[57] CCc1cc(-c2nc(N)ncc2-c2cscn2)c(O)cc1OC
[58] CC1CN(C(=O)c2cc3cc(Br)ccc3oc2=O)CC(C)O1 (stereo not drawn)
[59] O=C1S/C(=C\c2ccccc2)C(=O)N1CN1CCOCC1
[60] C=CCN1C(=O)S/C(=C/c2ccc(N3CCOCC3)cc2)C1=O
[61] Cc1cc(C(=O)CN2CCN(c3cccc(Cl)c3)CC2)c(C)n1-c1ccc(S(N)(=O)=O)cc1
[62] O=C(/C=C/c1ccco1)/C=C/c1ccco1
[63] O=C(/C=C/c1ccccc1)/C=C/c1ccco1

| screen / no. | 57 | 58 | 59 | 60 | 61 | 62 | 63 |
| --- | --- | --- | --- | --- | --- | --- | --- |
| HCMV NEC inh | -9 | -15 | -46 | -24 | -20 | nt | 10 |
| Sa growth 42C | nt | nt | 105 | 128 | 63 | 65 | nt |
| GIV Gai3 FP | nt | nt | 97 | 95 | nt | 45* | 120 |
| GIV-Gai FP conf | nt | nt | nt | 87 | nt | 61 | nt |
| GIV-Gai AS conf | nt | nt | nt | 44529 | nt | 42048 | nt |
